Reference: patent US10562897B2, “Substituted 3,4-dihydro-2H-pyrido[1,2-a]pyrazine-1,6-diones as gamma secretase modulators” (Janssen Pharmaceutica NV, priority 2014, dated 2020)

Experiments:
γ-secretase [1] = biological target: T1, γ-secretase (Homo sapiens, UniProt P49768); assay: Screening for γ-secretase-modulating activity: Aßtotal in supernatant of SKNBE2 cells carrying hAPP 695 wild type (Alphalisa), IC50
γ-secretase [2] = biological target: T1, γ-secretase; assay: Screening for γ-secretase-modulating activity: Aß42 in supernatant of SKNBE2 cells carrying hAPP 695 wild type (Alphalisa), IC50

Compound | IC50 (γ-secretase [1]; read-out: IC50 Aβtotal, overnight incubation, cell supernatant) [nM] | IC50 (γ-secretase [2]; read-out: IC50 Aβ42, overnight incubation, cell supernatant) [nM] | IC50 (γ-secretase [1]; read-out: IC50 Aβtotal, overnight incubation, cell supernatant, tested form: HCl) [nM] | IC50 (γ-secretase [2]; read-out: IC50 Aβ42, overnight incubation, cell supernatant, tested form: HCl) [nM]
Cc1cn(-c2ccc3n(c2=O)CCN(CC2(C)COc4ccc(Cl)cc42)C3=O)cn1 (stereo not shown) | > 10000 | 590 |  | 
Cc1cn(-c2ccc3n(c2=O)C[C@@H](C)N(Cc2cccc4c2OC(C)(C)C4)C3=O)cn1 |  |  | > 10000 | 590
